Target: T1, Tyrosine-protein kinase ZAP-70 (Homo sapiens, UniProt P43403)
T1 sequence (P43403 whole entry): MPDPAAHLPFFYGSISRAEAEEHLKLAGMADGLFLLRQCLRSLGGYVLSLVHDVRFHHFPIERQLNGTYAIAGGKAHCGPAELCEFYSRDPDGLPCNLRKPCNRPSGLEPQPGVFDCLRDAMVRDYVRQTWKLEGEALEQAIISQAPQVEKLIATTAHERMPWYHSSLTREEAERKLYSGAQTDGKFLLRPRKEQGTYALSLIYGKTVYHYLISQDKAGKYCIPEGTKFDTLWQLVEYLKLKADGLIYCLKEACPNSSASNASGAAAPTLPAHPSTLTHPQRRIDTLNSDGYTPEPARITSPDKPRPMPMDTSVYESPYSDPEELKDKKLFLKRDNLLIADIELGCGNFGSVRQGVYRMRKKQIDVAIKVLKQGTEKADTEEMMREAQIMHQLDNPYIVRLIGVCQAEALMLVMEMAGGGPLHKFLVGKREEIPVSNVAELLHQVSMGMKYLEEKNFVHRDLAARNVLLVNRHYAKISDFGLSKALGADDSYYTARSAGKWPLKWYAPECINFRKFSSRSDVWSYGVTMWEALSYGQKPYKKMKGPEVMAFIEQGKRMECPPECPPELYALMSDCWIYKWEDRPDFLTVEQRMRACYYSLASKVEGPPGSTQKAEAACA
Assay: Inhibition of Zeta-chain (TCR) associated protein kinase 70kDa, Zap70 (Inactive at 1 mM ATP)

IC50: > 20 µM
Structure (SMILES): CN1CCN([C@H]2CC[C@@H](n3cc(-c4ccc(Oc5ccccc5)cc4)c4c(N)ncnc43)CC2)CC1

Source: ChEMBL document CHEMBL1135158, “Pyrrolo[2,3-d]pyrimidines containing diverse N-7 substituents as potent inhibitors of Lck” (Bioorg Med Chem Lett, 2002)
